Our source for the Selectivity ratio values is ChEMBL document CHEMBL1138891, “3-(4-Piperidinyl)indoles and 3-(4-piperidinyl)pyrrolo-[2,3-b]pyridines as ligands for the ORL-1 receptor” (Bioorg Med Chem Lett, 2006).

The species named for assay [1] is Homo sapiens. In words: Selectivity for ORL1 receptor over mu opioid receptor.
The species entered for assay [2] is Homo sapiens. The assay is described as follows: Selectivity for ORL1 receptor over kappa opioid receptor.
Assay [3] is filed under the species Homo sapiens. The assay is described as follows: Selectivity for mu opioid receptor over ORL1 receptor.
Assay [4] is filed under the species Homo sapiens. The assay is described as follows: Selectivity for ORL1 receptor over delta opioid receptor.

For `Fc1ccc2c(C3CCN(C4Cc5cccc6cccc4c56)CC3)c[nH]c2c1` (configuration not stated), the Selectivity ratio in the assay filed under Homo sapiens [1] worked out at 17; in the assay listed under Homo sapiens [2], 100.
Take `c1ccc(Oc2ccc(CN3CCC(c4c[nH]c5ncccc45)CC3)cc2)cc1`: the Selectivity ratio in the assay listed under Homo sapiens [3] came out at 15.
For the molecule `c1ccc2c(CN3CCC(c4c[nH]c5ncccc45)CC3)cccc2c1`, in the assay listed under Homo sapiens [3], the Selectivity ratio worked out at 2.4.
Regarding `Cc1[nH]c2ccc(Cl)cc2c1C1CCN(C2Cc3cccc4cccc2c34)CC1` (configuration not stated), the Selectivity ratio turned out to be 25 in the assay filed under Homo sapiens [1] and 65 in the assay listed under Homo sapiens [2].
For the molecule `Fc1ccc2[nH]cc(C3CCN(C4Cc5cccc6cccc4c56)CC3)c2c1` (configuration not stated), the Selectivity ratio in the assay listed under Homo sapiens [1] was found to be 27; in the assay listed under Homo sapiens [2] it was 100.
On to `Cn1cc(C2CCN(C3Cc4cccc5cccc3c45)CC2O)c2cccnc21` (configuration not stated), for which the Selectivity ratio is 67 in the assay filed under Homo sapiens [1], over 1000 in the assay filed under Homo sapiens [2] and over 1000 in the assay listed under Homo sapiens [4].
For the molecule `Fc1ccc2c(C3=CCN(C4Cc5cccc6cccc4c56)CC3)c[nH]c2c1` (configuration not stated), the Selectivity ratio in the assay filed under Homo sapiens [1], in the assay filed under Homo sapiens [2] and in the assay listed under Homo sapiens [4] was over 30 each time.
For the molecule `c1cc2c3c(cccc3c1)C(N1CCC(c3c[nH]c4ncccc34)CC1)C2` (configuration not stated), the values for the Selectivity ratio in the assay filed under Homo sapiens [1], in the assay listed under Homo sapiens [2] and in the assay listed under Homo sapiens [4] were 98, 690 and over 1000, respectively.
